Test results from PubChem BioAssay AID651821 (The Scripps Research Institute Molecular Screening Center, 2012).
Only a part is listed here, and it is no random draw. The source made the active and inactive calls.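 The calls were made as follows: active = inhibition above the plate cutoff, the mean of all test compounds on that plate plus 3 SD (cut at about 35% in these data); inactive = the rest.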

Test: binders of r(CAG) RNA repeats, primary screen, biochemical, fluorescence (AID 651821);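 also: 0% = DMSO alone and 100% = 100 µM mitoxantrone as full dye displacement; higher means more dye released from RNA so lower well fluorescence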
Settings: r(CAG) RNA repeat, TO-PRO-1 dye displacement fluorescence; at 3 µM; stronger effect = higher value

SMILES	inhibition
c1ccc(-c2nn[nH]n2)c(-c2nn[nH]n2)c1	inactive: -2.39%
Cc1ccc(NP(=O)(Oc2cccc(C)c2)Oc2cccc(C)c2)nc1	inactive: -1.49%
O=C(NC1CCS(=O)(=O)C1)NP(=S)(Oc1ccccc1)Oc1ccccc1 (stereo unspecified)	inactive: -1.58%
CCNC(=S)/N=C(\N)N[N+](=O)[O-]	inactive: 2.64%
O=P1(N(CCCl)CCCl)OCCC2CCCCN21 (stereo unspecified)	inactive: -0.36%
O=[As](O)(c1ccccc1)c1ccc(O)cc1	inactive: 1.59%
O=[N+]([O-])c1ncn(CCn2cnc([N+](=O)[O-])n2)n1	inactive: 0.24%
CC(=O)NC(SC(=S)N(C)C)C(Cl)(Cl)Cl (stereo unspecified)	inactive: -1.42%
O=C(OC1CN2CCC1CC2)c1cccc(Cl)c1 (stereo unspecified)	inactive: -0.14%
C/C(N)=N\P(=O)(OCc1ccccc1)OCc1ccccc1	inactive: 1.99%
Nc1ccc([As](=O)(O)c2ccc([N+](=O)[O-])cc2)cc1	inactive: 1.07%
C(Cc1nn[nH]n1)Cc1nn[nH]n1	inactive: 2.1%
CN(C)C1(CNC(=O)c2ccc(Cl)c(S(N)(=O)=O)c2)CCCCC1	inactive: 4.24%
O=P(Nc1ccccn1)(c1ccc(Br)cc1)c1ccc(Br)cc1	inactive: -5.44%
Nc1ccc(CCCCOc2ccccc2)cc1	inactive: 2.06%
COc1ccc(N)c([N+](=O)[O-])c1[N+](=O)[O-]	inactive: 8.55%
O=P(Nc1nc2ccccc2s1)(c1ccccc1)c1ccccc1	inactive: -2.14%
C[C@H]1OP(=O)(Oc2ccccc2)[C@H](O)[C@H](O)[C@H]1N=[N+]=[N-] (stereo partly specified)	inactive: -2.75%
O=P(Nc1nccs1)(c1ccccc1)c1ccccc1	inactive: 1.15%
CC(C)C(=O)NC(Sc1ccccc1)C(Cl)(Cl)Cl (stereo unspecified)	inactive: -3.55%
c1nnnn1CCn1cnnn1	inactive: 0.38%
COc1ccccc1CNC(=O)COC(=O)C(O)(c1ccccc1)c1ccccc1	inactive: -4.01%

SMILES	inhibition
CC(C)/C=N\N=C(\N)N[N+](=O)[O-]	inactive: -0.8%
CC1(CBr)Cn2c(nc3ccccc3c2=O)S1 (stereo unspecified)	inactive: 0.61%
CCC1=CC2Cc3nc4ccc(Cl)cc4c(N)c3C(C1)C2 (stereo unspecified)	inactive: 12.7%
O=P1(Nc2ccccn2)COc2ccccc2OC1	inactive: 2.11%
CCOP(=O)(NC(=NC(C)c1ccccc1)NC(C)c1ccccc1)OCC (stereo unspecified)	inactive: -3.2%
CN(CCCl)Cc1cc(Cl)c(NC2=NCCN2)c(Cl)c1	inactive: 2.59%
CCOP(=O)(Nc1ccc(C)cn1)OCC	inactive: 3.42%
Clc1n[nH]nc1-c1nn[nH][15n]1	inactive: 4.72%
O=P1(N(CCCl)CCCl)NCCC(C(F)(F)F)O1 (stereo unspecified)	inactive: 2.61%
CC(C)(C)C(=O)NC(Sc1ncccn1)C(Cl)(Cl)Cl (stereo unspecified)	inactive: -5.48%
Cc1ccc(S(=O)(=O)N(CCCN)CCCc2c(C)nc(N)[nH]c2=O)cc1	inactive: 9.42%
O=P1(Nc2ncccn2)COc2ccccc2OC1	inactive: -0.34%
Nc1cccc([As](=O)(O)c2ccccc2)c1	inactive: 1.91%
NS(=O)(=O)c1cccc(NC(=O)COC(=O)C(O)(c2ccccc2)c2ccccc2)c1	inactive: 5.37%
O=P1(Nc2ccc(Br)cn2)COc2ccccc2OC1	inactive: -0.2%
O=[As](O)(c1cccs1)c1cccs1	inactive: -0.2%
Cc1ccc(OCC(=O)OC2CN3CCC2CC3)cc1 (stereo unspecified)	inactive: -0.74%
Cc1nn(-c2ccccc2)c2c1P(=O)(N1CCOCC1)N(C)C(c1ccccc1)=N2 (stereo unspecified)	inactive: -3.2%
Cc1ccc(C(=O)OC2CN3CCC2CC3)cc1 (stereo unspecified)	inactive: -0.76%
CC1CCC(C(C)C)C(OP(=O)(Nc2ccccn2)c2ccccc2)C1 (stereo unspecified)	inactive: -11.2%
CN(C)C1(CNC(=O)c2ccc(S(C)(=O)=O)cc2)CCCCC1	inactive: -4.22%
O=C(/C=C/c1ccccc1)OC1CN2CCC1CC2 (stereo unspecified)	inactive: 0.37%

SMILES	inhibition
CCCC1OP(=O)(Nc2ccccc2)OCC1CC (stereo unspecified)	inactive: -0.29%
NC(=O)Nc1ccc([As](=O)(O)O)cc1	inactive: 0.53%
N#CCCN(C(=O)COC(=O)C(O)(c1ccccc1)c1ccccc1)c1ccc(F)cc1	inactive: -8.99%
CN(C(=O)Cc1ccccc1)[C@@H]1CC[C@]2(CCCO2)C[C@H]1N1CCCC1	inactive: 2.18%
CCOP1(=S)c2c(C)nn(CCC#N)c2N=C(c2ccc(F)cc2)N1C (stereo unspecified)	inactive: -6.07%
CN(C)C(=O)c1cc([N+](=O)[O-])cc2c1-c1c(cc([N+](=O)[O-])cc1[N+](=O)[O-])C2=O	inactive: 0.76%
O=[N+]([O-])c1ccc2c(c1)nnn2O	inactive: 1.63%
CN(C(=O)Cc1ccc(Cl)c(Cl)c1)[C@H]1CC[C@@]2(CCCO2)C[C@@H]1N1CCCC1	inactive: -2.15%
CCOP1(=S)c2c(C)nn(CCC#N)c2N=C(c2ccccc2F)N1C (stereo unspecified)	inactive: -7.91%
O=P(Nc1nccs1)(Oc1ccccc1)Oc1ccccc1	inactive: 2.4%
O=C(O)COc1ccc([As](=O)(O)O)cc1[N+](=O)[O-]	inactive: -0.12%
Nc1ccccc1[As](=O)(O)c1ccccc1	inactive: -0.68%
Nc1cccc2c([As](=O)(O)O)cccc12	inactive: -108%
Cc1ccc(NCCc2c([N+](=O)[O-])cc([N+](=O)[O-])cc2[N+](=O)[O-])cc1	inactive: 17.9%
CCCOP(=S)(Nc1nc(N)cc(=O)[nH]1)OCCC	inactive: 8.16%
COc1cc(C2NCCC3(OCCO3)C2(C)C)cc(OC)c1OC (stereo unspecified)	inactive: -6.17%
CCOP(=O)(Nc1cccc2ccccc12)OCC	inactive: -5.62%
O=C(OC1CN2CCC1CC2)c1ccc(Cl)cc1 (stereo unspecified)	inactive: 1.36%
COc1cc(C(=O)NCC2(N3CCOCC3)CCCCC2)cc(Cl)c1OC(C)C	inactive: -2.49%
O=[As](O)(O)c1cccnc1	inactive: -1.84%
CS(=O)(=O)c1ccc(Cl)c(NC(=O)COC(=O)C(O)(c2ccccc2)c2ccccc2)c1	inactive: -1.53%
O=[As](O)(c1cccc(O)c1)c1cccc(O)c1	inactive: -0.44%
